Test results as given in ChEMBL document CHEMBL1156829 (Proc Natl Acad Sci U S A, 2008).

System: Huh-7
Assay: NOVARTIS: Cytotoxicity against human hepatocellular carcinoma cell line (Huh7)
Format: toxicity, cell-based

Row | SMILES | CC50 [µM]
1 | CCCN(CCC)[P+](CC)(N(CCC)CCC)N(CCC)CCC | 3.39
2 | CN(C)[P+](C)(N(C)C)N(C)C | > 10
3 | CCCN(CCC)[P+](C)(N(CCC)CCC)N(CCC)CCC | > 61.2
